Laboratory results: PubChem BioAssay AID1671190 (National Center for Advancing Translational Sciences (NCATS), 2021)
The entries are a selection whose mix differs from that of the whole data set. Results filed as inconclusive are left out. The source made the active and inactive calls. Calls come from the whole dose curve; as a rule, active = well fitted inhibition curve with a large enough effect; inconclusive = small, poorly fitted or top-dose-only effect, or another doubt; inactive = no such curve, though single readings can be large or run the other way.

Protein sequences, listed by entry. Tags and fused reporters are not part of them. Lines headed by an entry give the natural chain unless they say otherwise; changes in a name come on top.
UniProt P18054: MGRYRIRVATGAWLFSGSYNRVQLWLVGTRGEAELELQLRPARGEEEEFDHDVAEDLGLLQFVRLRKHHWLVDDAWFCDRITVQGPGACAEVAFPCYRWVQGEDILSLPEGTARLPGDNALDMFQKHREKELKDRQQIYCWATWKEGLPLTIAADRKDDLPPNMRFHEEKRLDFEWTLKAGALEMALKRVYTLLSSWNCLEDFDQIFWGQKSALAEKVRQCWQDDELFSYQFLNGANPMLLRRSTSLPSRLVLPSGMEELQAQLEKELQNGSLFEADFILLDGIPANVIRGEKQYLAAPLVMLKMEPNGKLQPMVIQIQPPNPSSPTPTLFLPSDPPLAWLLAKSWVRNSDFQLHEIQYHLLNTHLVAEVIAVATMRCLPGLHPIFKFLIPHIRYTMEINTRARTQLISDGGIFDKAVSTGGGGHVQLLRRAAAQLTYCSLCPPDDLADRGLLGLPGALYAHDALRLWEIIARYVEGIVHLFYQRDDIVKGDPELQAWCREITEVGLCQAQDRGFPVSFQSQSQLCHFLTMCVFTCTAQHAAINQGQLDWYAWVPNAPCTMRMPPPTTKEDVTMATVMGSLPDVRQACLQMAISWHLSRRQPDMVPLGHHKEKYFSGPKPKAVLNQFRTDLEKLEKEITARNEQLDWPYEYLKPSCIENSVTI

target: Polyunsaturated fatty acid lipoxygenase ALOX12 (Homo sapiens) (UniProt P18054); test: Primary qHTS assay for inhibitors of human arachidonate 12S-lipoxygenase (ALOX12): Round 2; conditions: purified 12hLO, xylenol orange hydroperoxide absorbance; series mostly up to 108 µM; activity change, negative = inhibition: at the top concentration
Text: Assay Provider: Theodore R. Holman Ph.D. University of California, Santa Cruz, California Human lipoxygenase 12hLO is a member of the closely related lipoxygenase family of enzymes which catalyze the site-specific oxidation of arachidonic acid to various hormone precursor molecules and as such is a candidate for drug development in a variety of disease areas, such as cancer and inflammation. Inhibition of 12hLO activity was screened by utilizing arachidonic acid as a substrate. The extent of hydroperoxide product formation was measured by a secondary chromogenic reaction in which xylenol orange (XO, Sigma-Aldrich, cat. number 39,818-7) reacts with the ferric ions produced from the reaction between the hydroperoxide and ferrous ions. The Fe (III)-XO complex is characterized with red-shifted absorbance at 560 nm. A purified preparation of human 12hLO was supplied by Dr. Holman laboratory, University of California, Santa Cruz.
PROTOCOL TABLE SEQUENCE No. (e.g., 1, 2, 3, etc.); […] (e.g., Cells, Incubation, Reagent, etc.); VALUE; DESCRIPTION 1; Enzyme; 3 uL; 150 nM 12hLO enzyme solution dispensed in 1536-well Greiner black, clear bottom plates. 2; Compound; 23 nL; compounds and controls were added. 3; Incubate; 15 min; room temperature. 4; Substrate; 1 uL; 40 uM arachidonic acid (final concentration). 5; Incubate; 30 min; room temperature. 6; Reagent; 4 uL; Fe-XO solution was added to each well. 7; Incubation; 30 min; room temperature 8; Detector; absorbance; Read 1 at 405 nm absorbance using ViewLux (Perkin-Elmer) CCD imager. 9; Detector; absorbance; Read 2 at 573 nm absorbance using ViewLux (Perkin-Elmer) CCD imager. NOTES (numbers refer to sequence above) 1; 150 nM 12hLO (final concentration) in buffer solution (25 mM Hepes, 0.01% Triton X-100, pH 7.0) was dispensed in columns 1, 2, 5-48. Column 1 is neutral (100% activity). Buffer only was dispensed in columns 3 and 4 as no enzyme negative controls. The plates were covered with metal lids with gas-exchange holes. 2; Compounds were pin transferred via a Kalypsys Pin Tool (Wako USA) in column 5-48. Control compound was transferred in column 2, titration of nordihydroguaiaretic acid (NDGA, Sigma-Aldrich, N5023) with top concentration of 20 mM in DMSO then 1:3 dilution in duplicate. Dilution factor of 23 nL into 4 uL final assay volume. 3; Covered assay plates were incubated for 15 min at room temperature. 4; Substrate was added to start the reaction; 40 uM arachidonic acid (Sigma-Aldrich, St. Louis, MO) was dispensed throughout the plate. 6; Chromogenic detection reagent solution (divalent iron/xylenol orange, Fe-XO) was added to each well: 200 uM xylenol orange, 300 uM ferrous ammonium sulfate prepared freshly in 50 mM sulfuric acid. 8, 9; Two absorbance readouts were obtained at 405 nm and at 573 nm using a ViewLux high-throughput CCD plate imager (Perkin-Elmer). The 573 to 405 (Read 2 / Read 1) absorbance ratio was used to compute reaction progress.
% is set by controls: 0 for no effect and ±100 for the full control effect.

Structure (SMILES) | activity change, negative = inhibition | Potency
Cc1ccc(N/C(=N/P(=O)(N2CCOCC2)N2CCOCC2)N2CCOCC2)cc1 | inactive: -49.9% | –
CC(C)CC(=O)NC(Sc1ccc(Cl)cc1)C(Cl)(Cl)Cl (stereo not drawn) | inactive: -30.7% | –
Nc1cc(N)c2nonc2c1[N+](=O)[O-] | inactive: 236% | –
Oc1ccccc1CNc1ccccn1 | inactive: -0.185% | –
CCOP(=O)(Nc1ccccc1)OCC | inactive: 402% | –
Cc1ccc(NP(=O)(Oc2ccccc2F)Oc2ccccc2F)nc1 | inactive: -6.08% | –
CN(C(=O)Cc1ccc(Cl)c(Cl)c1)[C@H]1CCCC[C@@H]1N1CCCC1 | – | inactive
CCn1c(=O)n(C2CCN(CC3CCCCCCC3)C[C@H]2CO)c2ccccc21 (stereo partly drawn) | inactive: -5.24% | –
O=C(O)c1ccccc1[As](=O)(O)O | inactive: 0.118% | –
CC(=O)Nc1ccc([As](=O)(O)O)cc1 | inactive: -0.747% | –
CCCC1OP(N)(=O)OCC1CC (stereo not drawn) | inactive: 0.009% | –
O=P(Nc1nc2ccc(Cl)cc2s1)(c1ccccc1)c1ccccc1 | inactive: 430% | –
CN(C(=O)Cc1ccccc1)C1CC[C@@]2(CCCO2)C[C@@H]1N1CCCC1 (stereo partly drawn) | inactive: 7.19% | –
CCN(N=Nc1nonc1N)c1nonc1N | inactive: 0.162% | –
Nc1cccc2ccc([As](=O)(O)O)cc12 | inactive: 0% | –
O=C(Nc1cc([As](=O)(O)O)ccc1O)c1ccccc1 | inactive: -3.55% | –
O=P1(N(CCCl)CCCl)OCCCS1 (stereo not drawn) | inactive: -0.47% | –

Structure (SMILES) | activity change, negative = inhibition | Potency
O=[N+]([O-])c1cccc(NC2=NCC(CBr)S2)c1 (stereo not drawn) | inactive: -37% | –
COC(=O)C1(C)COP(=O)(Nc2ccccc2)OC1 (stereo not drawn) | inactive: -8.48% | –
O=C(O)CNc1ccc([As](=O)(O)O)cc1 | inactive: 0.503% | –
O=[N+]([O-])c1ncn(CCn2ncnc2[N+](=O)[O-])n1 | inactive: -1.74% | –
CC(=O)N1C2C3N(C(C)=O)C1C1N(C(C)=O)C(C(N1C(C)=O)N3C(C)=O)N2C(C)=O | inactive: 14.1% | –
Cc1ccc(NP(=O)(Oc2ccccc2)Oc2ccccc2)nc1 | inactive: 5.93% | –
O=[N+]([O-])c1cc([N+](=O)[O-])c(CCNc2ccccc2)c([N+](=O)[O-])c1 | inactive: -15.3% | –
COc1ccc(C2=NCC(CBr)S2)cc1 (stereo not drawn) | inactive: -0.428% | –
CC(C)=N/N=C(\N)N[N+](=O)[O-] | inactive: -20.4% | –
CC(C)c1nc(Nc2ccccc2)n(P(=O)(N(C)C)N(C)C)n1 | inactive: 0.416% | –
CN(C)C(=O)OCCc1n(C)cc[n+]1C | inactive: -17.6% | –
c1cc(-c2nn[nH]n2)ccc1-c1nn[nH]n1 | inactive: 1.9% | –
CC1CCN(C(=O)Oc2c(Cl)cc(Cl)c3cccnc23)CC1 | inactive: 14.4% | –
CC(=O)C1=CCCC2CCC1N2 (stereo not drawn) | inactive: 8.34% | –
Nc1ccc([As](=O)(O)c2ccc(N)cc2)cc1 | inactive: 0% | –
CCN(/C(=N/P(=O)(N1CCOCC1)N1CCOCC1)N1CCOCC1)c1ccc(OC)cc1 | inactive: -3.08% | –
